Measurements: publication PMC7072329, “Discovery of Kynurenines Containing Oligopeptides as Potent Opioid Receptor Agonists” (Biomolecules, 2020)

By UniProt entry, the sequences of proteins in these tests, tags left out.
UniProt P33535, whole entry: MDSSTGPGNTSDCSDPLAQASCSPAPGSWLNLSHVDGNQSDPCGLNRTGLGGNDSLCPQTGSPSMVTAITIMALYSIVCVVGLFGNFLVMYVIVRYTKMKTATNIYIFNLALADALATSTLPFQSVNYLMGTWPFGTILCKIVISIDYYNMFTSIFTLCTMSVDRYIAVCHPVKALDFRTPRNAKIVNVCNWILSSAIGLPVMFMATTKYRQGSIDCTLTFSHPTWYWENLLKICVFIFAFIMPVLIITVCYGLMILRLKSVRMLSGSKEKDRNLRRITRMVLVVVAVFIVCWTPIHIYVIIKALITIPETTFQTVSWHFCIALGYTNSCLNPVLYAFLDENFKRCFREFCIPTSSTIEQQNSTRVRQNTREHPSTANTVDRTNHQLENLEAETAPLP

Molecular target: T1, μ-opioid receptor (Rattus norvegicus, UniProt P33535)
T1 construct: aliquots of frozen rat and guinea pig brain membrane homogenates were thawed and suspended in 50 mM Tris-HCl buffer; from tissue; host or cells: Wistar rat brain membrane homogenate
Type: binding
Settings: MOR; rat brain membrane; from IC50 by Cheng–Prusoff; read-out: Ki + S.E.M., displacement of [3H]DAMGO

Q: For C[C@@H](NC(=O)[C@@H](N)Cc1ccc(O)cc1)C(=O)NCC(=O)N(C)[C@@H](Cc1ccccc1)C(=O)NCCO [DAMGO, Tyr-D-Ala-Gly-(NMe)Phe-Gly-ol, reference compound], which Ki is on record?
A: 0.9 ± 0.28 nM
